Data set [1] deals with P-gp. As to conditions: cited from earlier work.
Data set [2] has as its target P-gp (Homo sapiens, UniProt P08183).

Amino acid sequences for entries named in this document (tags omitted).
UniProt P08183, whole entry: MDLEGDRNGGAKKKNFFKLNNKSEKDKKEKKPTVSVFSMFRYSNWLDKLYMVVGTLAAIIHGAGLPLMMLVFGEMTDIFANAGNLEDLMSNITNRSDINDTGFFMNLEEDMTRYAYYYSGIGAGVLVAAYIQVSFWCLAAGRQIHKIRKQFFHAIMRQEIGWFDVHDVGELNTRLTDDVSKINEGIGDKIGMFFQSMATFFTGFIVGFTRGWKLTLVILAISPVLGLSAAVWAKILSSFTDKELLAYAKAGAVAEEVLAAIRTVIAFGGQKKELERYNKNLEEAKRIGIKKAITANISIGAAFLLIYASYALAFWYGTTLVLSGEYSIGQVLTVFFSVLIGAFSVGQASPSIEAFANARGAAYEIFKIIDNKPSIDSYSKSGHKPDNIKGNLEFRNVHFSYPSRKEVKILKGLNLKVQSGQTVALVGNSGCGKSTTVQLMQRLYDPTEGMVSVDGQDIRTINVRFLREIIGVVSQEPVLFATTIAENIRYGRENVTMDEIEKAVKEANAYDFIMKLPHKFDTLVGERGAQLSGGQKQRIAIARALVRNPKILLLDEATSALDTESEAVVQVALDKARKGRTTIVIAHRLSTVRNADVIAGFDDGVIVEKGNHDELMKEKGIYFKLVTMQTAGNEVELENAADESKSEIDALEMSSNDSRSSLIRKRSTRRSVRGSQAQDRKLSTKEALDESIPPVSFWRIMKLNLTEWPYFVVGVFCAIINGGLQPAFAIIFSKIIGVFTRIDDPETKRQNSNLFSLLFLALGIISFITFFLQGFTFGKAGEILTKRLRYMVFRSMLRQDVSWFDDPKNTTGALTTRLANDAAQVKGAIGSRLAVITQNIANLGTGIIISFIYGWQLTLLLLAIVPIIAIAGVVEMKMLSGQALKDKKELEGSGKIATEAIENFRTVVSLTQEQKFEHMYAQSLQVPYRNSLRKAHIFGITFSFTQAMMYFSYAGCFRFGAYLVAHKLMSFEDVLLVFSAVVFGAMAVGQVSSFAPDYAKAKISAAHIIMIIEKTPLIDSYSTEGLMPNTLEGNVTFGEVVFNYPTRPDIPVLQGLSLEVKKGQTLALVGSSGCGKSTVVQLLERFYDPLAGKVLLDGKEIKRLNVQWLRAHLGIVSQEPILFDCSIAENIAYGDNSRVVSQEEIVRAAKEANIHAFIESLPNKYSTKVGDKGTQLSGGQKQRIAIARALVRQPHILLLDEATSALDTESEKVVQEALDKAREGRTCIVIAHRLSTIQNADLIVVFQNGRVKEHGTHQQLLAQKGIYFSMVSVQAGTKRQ

For the substance Proanthocyanidin, the IC50 in the data set with P-gp [1] is 400 µM. For the same substance, at P-gp [2], the “Calcein-AM Efflux % inhibition” value is reported as 18.52% and the “P-gp efflux inhibitory activity (in words)” value is listed as “low inhibitory activity”.

Broadly, the IC50 is the concentration that gives 50% inhibition.

(Values after PMC4955727 (Molecular bioSystems, 2016).)
